Here are results for one compound from US20210290524A1, “TOPICAL TRPV1 ANTAGONISTS AND METHODS AND COMPOSITIONS THEREOF” (CHILDREN'S MEDICAL CENTER CORPORATION, priority 2016, published 2021).

Sequences of proteins named here, by UniProt entry; tags and fusion partners are left off.
UniProt O35433, whole entry: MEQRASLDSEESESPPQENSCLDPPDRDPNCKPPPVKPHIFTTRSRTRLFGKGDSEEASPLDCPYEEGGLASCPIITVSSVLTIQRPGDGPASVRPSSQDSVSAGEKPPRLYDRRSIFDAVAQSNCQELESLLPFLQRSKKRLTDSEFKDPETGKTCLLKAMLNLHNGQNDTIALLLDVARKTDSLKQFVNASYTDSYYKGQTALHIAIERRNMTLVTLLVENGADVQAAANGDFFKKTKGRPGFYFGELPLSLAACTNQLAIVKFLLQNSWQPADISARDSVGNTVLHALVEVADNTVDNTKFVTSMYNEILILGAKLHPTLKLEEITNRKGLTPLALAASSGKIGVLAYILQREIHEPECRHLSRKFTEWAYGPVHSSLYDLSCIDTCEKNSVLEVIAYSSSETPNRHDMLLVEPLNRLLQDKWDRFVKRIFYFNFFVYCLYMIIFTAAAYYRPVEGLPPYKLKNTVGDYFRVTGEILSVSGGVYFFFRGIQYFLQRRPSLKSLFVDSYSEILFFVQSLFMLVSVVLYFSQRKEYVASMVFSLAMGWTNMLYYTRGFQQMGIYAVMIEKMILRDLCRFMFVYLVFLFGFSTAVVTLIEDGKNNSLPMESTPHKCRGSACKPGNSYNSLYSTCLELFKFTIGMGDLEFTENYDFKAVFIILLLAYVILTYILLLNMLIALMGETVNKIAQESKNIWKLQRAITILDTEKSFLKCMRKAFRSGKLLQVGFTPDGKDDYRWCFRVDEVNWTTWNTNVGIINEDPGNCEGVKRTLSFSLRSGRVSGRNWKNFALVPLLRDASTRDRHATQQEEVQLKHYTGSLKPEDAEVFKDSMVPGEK

The assay has as its target rTRPV1 (Rattus norvegicus, UniProt O35433). The conditions noted are these: concentration response with capsaicin; HEK rTRPV1.

Consider `NC(=O)CC[C@H](N)C(=O)N[C@@H](CCCN=C(N)N)C(=O)N[C@@H](Cc1ccccc1)C(=O)N[C@@H](CO)C(=O)N[C@@H](CCCN=C(N)N)C(=O)O` [opiorphin], for which the “concentration at which activity was seen” value was found to be 10 nM.
